From ChEMBL document CHEMBL1126102, “2-(N'-aralkylidenehydrazino)adenosines: potent and selective coronary vasodilators” (J Med Chem, 1992)

Chains of the proteins cited; added tags and fusions are not shown.
UniProt P47745, whole entry: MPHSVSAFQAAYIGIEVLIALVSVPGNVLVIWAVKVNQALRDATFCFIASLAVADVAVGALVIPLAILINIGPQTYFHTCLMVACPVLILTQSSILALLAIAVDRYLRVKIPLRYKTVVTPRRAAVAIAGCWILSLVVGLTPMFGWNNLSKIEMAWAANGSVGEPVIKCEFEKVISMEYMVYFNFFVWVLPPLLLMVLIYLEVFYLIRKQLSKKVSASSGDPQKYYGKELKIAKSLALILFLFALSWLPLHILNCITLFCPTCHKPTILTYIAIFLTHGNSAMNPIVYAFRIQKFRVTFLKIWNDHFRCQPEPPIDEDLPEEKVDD

Target: Adenosine receptor A1 (Cavia porcellus, UniProt P47745)
Test: Tested for adenosine A1 receptor agonistic activity by determining concentration needed to prolong the stimulus-QRS interval by 50% of the maximum response
Type: functional

Q: How did the EC50 turn out when `COc1ccc(/C=N/Nc2nc(N)c3ncn([C@@H]4O[C@H](CO)[C@@H](O)[C@H]4O)c3n2)cc1` was run?
A: 22.9 µM
